Measurements reported in US11034679B2 (priority 2017, dated 2021).

Sequences of proteins named here, by UniProt entry; tags and fusion partners are left off.
UniProt P35372, whole entry: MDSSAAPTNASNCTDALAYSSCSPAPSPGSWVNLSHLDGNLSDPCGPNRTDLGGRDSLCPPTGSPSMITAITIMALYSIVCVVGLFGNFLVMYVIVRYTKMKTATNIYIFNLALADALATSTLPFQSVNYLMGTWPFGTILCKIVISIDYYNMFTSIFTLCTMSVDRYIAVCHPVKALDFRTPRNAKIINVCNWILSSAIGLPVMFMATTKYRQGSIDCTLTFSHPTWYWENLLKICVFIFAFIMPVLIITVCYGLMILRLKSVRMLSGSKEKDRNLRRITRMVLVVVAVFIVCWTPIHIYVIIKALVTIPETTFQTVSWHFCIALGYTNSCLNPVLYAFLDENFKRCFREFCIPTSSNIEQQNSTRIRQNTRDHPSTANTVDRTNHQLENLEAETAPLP

Molecular target: MOR (Homo sapiens, UniProt P35372)
Assay: cell-based
Design: host or cells: CHO-K1 OPRM1 β-arrestin-2 cells
Conditions: read-out: % Efficacy (maximum efficacy based on DAMGO maximum stimulation)

COC(=O)[C@@H]1C=C(OC(=O)c2ccccc2)C(=O)[C@H]2[C@@]1(C)CC[C@H]1C(=O)O[C@H](c3ccoc3)C[C@]21C [kurkinorin, reference compound]
Emax: 96%
